Amino acid sequences for entries named in this document (tags omitted).
UniProt Q8NER1, whole entry: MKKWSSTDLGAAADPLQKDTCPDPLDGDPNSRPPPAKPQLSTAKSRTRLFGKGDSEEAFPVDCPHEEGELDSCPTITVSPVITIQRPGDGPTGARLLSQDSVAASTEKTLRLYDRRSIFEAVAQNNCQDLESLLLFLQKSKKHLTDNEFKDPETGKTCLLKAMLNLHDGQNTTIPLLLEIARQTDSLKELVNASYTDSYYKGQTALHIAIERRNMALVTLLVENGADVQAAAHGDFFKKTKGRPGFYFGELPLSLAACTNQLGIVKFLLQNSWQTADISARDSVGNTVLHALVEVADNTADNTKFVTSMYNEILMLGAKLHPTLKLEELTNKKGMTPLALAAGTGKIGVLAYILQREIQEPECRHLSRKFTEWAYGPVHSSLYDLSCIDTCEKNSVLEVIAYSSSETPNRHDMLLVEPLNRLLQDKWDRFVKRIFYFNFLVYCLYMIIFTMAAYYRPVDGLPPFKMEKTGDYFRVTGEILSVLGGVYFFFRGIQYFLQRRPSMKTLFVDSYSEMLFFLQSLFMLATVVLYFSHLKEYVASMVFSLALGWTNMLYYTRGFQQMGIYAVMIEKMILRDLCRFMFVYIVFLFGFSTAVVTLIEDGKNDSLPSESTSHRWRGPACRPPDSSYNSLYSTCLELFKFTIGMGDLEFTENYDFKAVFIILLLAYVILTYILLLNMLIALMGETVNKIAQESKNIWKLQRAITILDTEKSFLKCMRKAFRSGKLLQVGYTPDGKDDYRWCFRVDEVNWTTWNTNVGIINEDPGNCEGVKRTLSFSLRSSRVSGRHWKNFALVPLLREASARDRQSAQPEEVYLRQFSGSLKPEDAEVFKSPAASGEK

In patent publication US8921373B2, “Compounds having TRPV1 antagonistic activity and uses thereof” (Shionogi & Co., Ltd., priority 2010, dated 2014):

Target: human recombinant TRPV1 (Homo sapiens (Human), UniProt Q8NER1)
Test: TRPV1 pH-Based Assay (Protocol 2, Ca2+ response in TRPV1/CHO cells, Fura-2)
Type: cell-based
Conditions: pH 5.0-5.1, comparative compounds without the substituted alkyl group, read-out: TRPV1 IC50 Potency (pH-Based Assay), Comparative compound IC50
Description: For Protocol 2, a Chinese Hamster Ovary cell line (CHO) that has been engineered to constitutively express human recombinant TRPV1 was used (TRPV1/CHO cells). The TRPV1/CHO cell line was generated as described below.
TRPV1/CHO cells were seeded in the 96-well clear-bottom black-wall plate (Nunc) at densities of 1-2×10^4 cells/well and grown in 100 μL of culture medium (alpha-MEM supplemented with 10% FBS, 20 mM HEPES, 1 mg/mL geneticin and 1% antibiotic-antimycotic mixed stock solution) for 1-2 days before the experiment.
(2) The 96-well plate was incubated at 37° C. for 45 min.
(3) The loading buffer was removed from each well. […] The wells were then refilled with 80 μL of measuring buffer. […]
(5) The Fura-2 fluorescent intensity was monitored at a wavelength of 340 nm and at 380 nm, respectively, at a rate of 0.5 Hz for a total of 240 seconds. […]
(6) Fluorescence intensity ratio refers to the fluorescence intensity at 340 nm over the fluorescence intensity at 380 nm at a particular time point. […]
(7) Maximal signal ratios from each well were calculated as output data using the FDSS-3000 analysis program. Data were analyzed using Excel (Microsoft) and XLfit (idbs) software.
Two different agonist solutions with different H2SO4 concentrations were used for the pH assay (FIG. 3A). […] The concentrations for the two agonist solutions were determined as described above in Section 2 of Protocol 2. […]

IC50: 32 nM
SMILES: O=C(Nc1ccc(C(F)(F)F)cc1)N1CC=C(c2ncccc2Cl)CC1 [reference compound]
